Reference: EP0404945A1 (priority 1989, dated 1990)

Tests used:
Solubility in solvents = conditions: qualitative; water and organic solvents
houseflies [1] = test: Insecticidal activity on houseflies, laboratory test in gauze boxes; conditions: for Death of flies, % after 48 hours / Death of flies, % after 72 hours: concentration 2 % by mass
houseflies [2] = test: Insecticidal activity on houseflies, production test in home and production premises; conditions: after 72 hrs

Q: For COP(=O)(O)NC(CCl)C(Cl)c1ccc([N+](=O)[O-])cc1 (stereo not shown), which solubility (Solubility in solvents) is on record?
A: soluble in water, alcohols and acetone

Q: And the “Death of flies, % after 48 hours” value (houseflies [1])?
A: 54%

Q: What about the “Death of flies, % after 72 hours” value (houseflies [1]) of the same compound?
A: 89.1%

Q: What does the source list for COP(=O)(O)NC(CCl)C(O)c1ccc([N+](=O)[O-])cc1 (stereo not shown)?
A: solubility (Solubility in solvents): soluble in water, alcohols and acetone; Death of flies, % after 48 hours (houseflies [1]): 36.4%; Death of flies, % after 72 hours (houseflies [1]): 70%

Q: What does the source list for COP(=O)(O)NC(CO)C(O)c1ccc([N+](=O)[O-])cc1 (stereo not shown)?
A: solubility (Solubility in solvents): soluble in water, alcohols, acetone; Death of flies, % after 48 hours (houseflies [1]): 46%; Death of flies, % after 72 hours (houseflies [1]): 94.2%

Q: For O=[N+]([O-])c1ccc(C(O)C(CO)NP(=O)(O)O)cc1 (stereo not shown) [Example 1, 1-para-netrophenyl-1,3--propanediolamidophosphoric acid], which “Death of flies, % Tests production” value (houseflies [2]; concentration 2 %) is on record?
A: 100%

Q: And the “Death of flies, % Tests laboratory” value (houseflies [1]; concentration 2 %)?
A: 100%

Q: What does the source list for O=[N+]([O-])c1ccc(C(O)C(CCl)NP(=O)(O)O)cc1 (stereo not shown) [Example 2, 1-para-nitrophenyl-1--chloro-3-propanolamidophosphoric acid]?
A: Death of flies, % Tests production (houseflies [2]; concentration 2 %): 100%; Death of flies, % Tests laboratory (houseflies [1]; concentration 2 %): 100%

Q: For O=[N+]([O-])c1ccc(C(Cl)C(CCl)NP(=O)(O)O)cc1 (stereo not shown) [Example 3], which “Death of flies, % Tests production” value (houseflies [2]; concentration 2 %) is on record?
A: 100%

Q: What about the “Death of flies, % Tests laboratory” value (houseflies [1]; concentration 2 %) of the same compound?
A: 100%

Q: What does the source list for COP(=O)(NC(CCl)C(O)c1ccc([N+](=O)[O-])cc1)OC (stereo not shown) [Example 11, 1-para-nitrophenyl-1-chloro-3-propanolamidophosphoric acid dimethyl ether]?
A: Death of flies, % Tests production (houseflies [2]; concentration 1 %, listed as Example 18, 4320 min): 66%; Death of flies, % Tests production (houseflies [2]; concentration 1 %, listed as Example 22, 4320 min): 73%

Q: With COP(=O)(NC(CCl)C(Cl)c1ccc([N+](=O)[O-])cc1)OC (stereo not shown) [Example 12, 1-para-nitrophenyl--1,3-dichloropropanamidophosphoric acid dimethyl ether] as the compound, how does the “Death of flies, % Tests production” value (houseflies [2]; concentration 1 %) read?
A: 70%

Q: Which “Death of flies, % Tests production” value (houseflies [2]; concentration 1 %) does the source give for CCOP(=O)(NC(CCl)C(O)c1ccc([N+](=O)[O-])cc1)OCC (stereo not shown) [Example 13, 1-para-nitrophenyl-1-chloro-3-propanolamidophosphoric acid diethyl ether] here?
A: 98%

Q: For CCOP(=O)(NC(CCl)C(Cl)c1ccc([N+](=O)[O-])cc1)OCC (stereo not shown) [Example 14, 1-para-nitrophenyl-1,3--dichloropropanamidophosphoric acid diethyl ether], which “Death of flies, % Tests production” value (houseflies [2]; concentration 1 %) is on record?
A: 100%

Q: What about the “Death of flies, % Tests laboratory” value (houseflies [1]; concentration 1 %) of the same compound?
A: 100%

Q: For COP(=O)(OC)C(O)C(Cl)(Cl)Cl (stereo not shown) [Known insecticidal preparation, O,O-Dimethyl-(1-hydroxy-2,2,2-tri-chloroethyl)-phosphonate], which “Death of flies, % Tests production” value (houseflies [2]; concentration 1 %) is on record?
A: 89%
